# Ab-14 heavy chain CDR variants: yeast mating affinities

The measurements come from Li et al. 2023 (doi:10.1038/s41467-023-39022-2) through the FLAb antibody collection.

Target: peptide PDVDLGDISGINAS, taken from heptad repeat 2 (HR2) of SARS-CoV-2 spike.

Parent scFv Ab-14: VH joined to VL by the linker GGGGSGGGGSGGGGS. Changes lie in the heavy chain CDRs alone.
VH: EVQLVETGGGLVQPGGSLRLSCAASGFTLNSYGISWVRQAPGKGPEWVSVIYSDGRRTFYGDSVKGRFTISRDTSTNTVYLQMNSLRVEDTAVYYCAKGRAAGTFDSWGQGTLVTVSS
VL: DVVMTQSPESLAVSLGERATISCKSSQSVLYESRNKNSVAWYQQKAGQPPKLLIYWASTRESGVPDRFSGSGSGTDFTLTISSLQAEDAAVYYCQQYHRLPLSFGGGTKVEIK

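Designed CDR sequences, proposed from the first random library and measured here. Group labels follow the data file (Ctrl: baseline library sampled from a position-specific scoring matrix, with some repeated check sequences; Rand: our label for a block that the file lists under HC and that is probably the random mutants of the ten best first-round binders; En: ensemble of fine-tuned language models; GP: Gaussian process model; GPLM: also part of the Gaussian process libraries; HC: hill climbing; Gen: genetic algorithm; Gibbs: Gibbs sampling; a sequence that several methods proposed may carry one label only). Affinity was read by AlphaSeq, a pooled yeast mating assay with surface-displayed partners. After mating in shaken culture at 30 °C for 16 h, diploids were selected and their barcode pairs sequenced. Read counts were normalised to the haploid input and turned into Kd by a linear fit to BCL2-family pairs of known affinity, for each replicate. Mating was done six times.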

Changes read parent residue, position, new residue, counted from the first residue of the VH shown.
Variants here have at most six changes.
Numbers give log10(Kd / nM), so 0 is 1 nM and 3 is 1 µM. Smaller is tighter.
The mean shown is taken over the replicates in which the pair was detected.
A pair that was not seen in that replicate is written "nd"; this usually means weak binding, but a binder can also be missed.
As a blank, each scFv also met three strains without target: over all heavy chain designs, 1% of these pairings were detected, typically at 2.08 and seldom below 0.84. Also given: how often the same scFv was detected with the empty control strains.
The authors' rule: three or more of the six replicates give a measured affinity, fewer mean a poor binder.
The range of this assay differs from that of the first round, and the authors advise against merging the two.
Of ten entries with the parent sequence, four were seen in most replicates (averages 0.34 to 2.37), three in one and three in none, so single entries are noisy.
Where one sequence has several entries in the source, the replicates are listed entry by entry, parted by semicolons.

With G26H T28N G61A R100Q [GPLM_Gen] the result was 1.48, 1.24, 1.38, 1.31, 1.37, 1.46 (mean 1.37; controls 0 of 18).
With S31E D106K S107L [GP_HC] the result was nd, nd, nd, nd, nd, nd (controls 0 of 18).
With T28S S31T G61I R100T [GPLM_Gibbs] the result was 0.90, 0.23, 0.17, 0.43, 0.52, 0.86 (mean 0.52; controls 1 of 18).
With N30L R56L D62H A101T A102H [Ctrl] the result was nd, nd, nd, nd, nd, nd (controls 0 of 18).
With T28S S31E G61K A101N [GP_HC] the result was -0.49, -0.71, -0.39, -0.60, -0.60, -0.06 (mean -0.47; controls 0 of 18).
With G61T A101I [Ctrl] the result was nd, nd, nd, nd, 1.80, nd (controls 0 of 18).
With G26K F59A G61E R100S [Ctrl] the result was nd, nd, 2.37, 1.31, nd, 2.15 (mean 1.94; controls 0 of 18).
With G26K T28Q S53A A101T [GP_Gibbs] the result was 1.61, 0.86, 1.22, 2.19, 1.47, 0.92 (mean 1.38; controls 0 of 18).
With S31E R100G T104A D106F [Ctrl] the result was nd, nd, nd, nd, nd, nd (controls 1 of 18).
With S31D F59M G61I T104Q [GP_HC] the result was nd, nd, nd, nd, nd, nd (controls 1 of 18).
With N30G S53A F59E A101W [Ctrl] the result was -0.02, 0.59, 0.07, 0.13, -0.15, 0.61 (mean 0.21; controls 0 of 18).
With T28N A101W [Ctrl+GPLM_Gen] the result was 1.20, 1.31, 1.44, nd, 1.79, nd; 0.93, nd, nd, nd, nd, nd (mean 1.33; controls 1 of 36).
With T28Q F59M [Ctrl] the result was 2.03, 2.98, 2.72, 2.28, 2.53, 2.30 (mean 2.47; controls 0 of 18).
With T28D S31E S53A R56L G61A R100N [En_HC] the result was nd, nd, nd, 2.13, 1.02, nd (mean 1.57; controls 0 of 18).
With T28V F105S [Ctrl] the result was nd, nd, nd, nd, nd, nd (controls 0 of 18).
With F27I S53A R100T D106I [Ctrl] the result was nd, nd, nd, nd, nd, nd (controls 0 of 18).
With T28S S53A S107T [GPLM_Gen] the result was -0.39, -0.79, -0.25, -0.90, -0.04, -0.76 (mean -0.52; controls 0 of 18).
With T104S D106T S107V [GP_HC] the result was nd, nd, nd, nd, nd, nd (controls 0 of 18).
With T28N R56Q A101T [GPLM_Gibbs] the result was 0.01, 0.39, 0.68, 0.18, 1.06, 0.89 (mean 0.53; controls 0 of 18).
With S31D G33M V64A G103L D106I [Rand] the result was nd, nd, nd, nd, nd, nd (controls 0 of 18).
With F59I G103H [Ctrl] the result was nd, nd, nd, nd, nd, nd (controls 0 of 18).
With R56K S63R R100Q S107L [GP_Gibbs] the result was nd, 1.31, nd, 1.26, nd, 1.61 (mean 1.39; controls 0 of 18).
With T28S S31W G61S R100E [GPLM_Gen] the result was 0.30, 0.15, 0.11, 0.47, 0.08, 0.37 (mean 0.25; controls 0 of 18).
With S31M G61S A101W [Ctrl] the result was 1.51, 1.00, 1.69, 1.39, 1.67, 1.66 (mean 1.49; controls 0 of 18).
With T28S T58A A101T [GPLM_Gen] the result was 0.60, 0.96, 0.54, 1.01, 0.63, 1.53 (mean 0.88; controls 0 of 18).
With K65R R100T [Ctrl] the result was nd, nd, 0.00, nd, 0.25, 0.45 (mean 0.23; controls 0 of 18).
With F27Q T28N S35T G61Q A101I S107T [Ctrl] the result was 2.98, 0.78, 0.81, 0.48, 1.24, 1.07 (mean 1.23; controls 0 of 18).
With S31E G33R Y52W G61T A101F T104M [Rand] the result was nd, nd, nd, nd, nd, nd (controls 0 of 18).
With T28D G103D F105T D106I S107L [Ctrl] the result was nd, nd, nd, nd, nd, nd (controls 0 of 18).
With G33N D106I [Ctrl] the result was nd, nd, nd, nd, nd, 0.24 (controls 0 of 18).
With T28E R100D [GPLM_Gibbs] the result was 0.37, 0.75, -0.13, 0.14, 0.44, 0.39 (mean 0.33; controls 0 of 18).
With T28D G61A R100Q [GPLM_Gen] the result was 0.83, -0.32, 0.53, nd, 0.05, 1.05 (mean 0.43; controls 0 of 18).
With T28A R56E [Ctrl] the result was 1.40, nd, nd, nd, 1.85, nd (mean 1.63; controls 0 of 18).
With T28E S31M R100E S107K [GP_Gen] the result was 0.92, 1.50, 0.84, 1.45, 1.68, 2.19 (mean 1.43; controls 0 of 18).
With T28W F59A [GPLM_Gibbs] the result was nd, nd, nd, nd, nd, nd (controls 1 of 18).
With R56K G61S R100V [GP_HC] the result was 0.60, 0.63, 0.09, 0.40, 0.92, 0.80 (mean 0.57; controls 0 of 18).
With N30D G61A S107Q [GPLM_Gen] the result was 0.37, 0.47, 0.58, 0.32, 0.60, 0.89 (mean 0.54; controls 0 of 18).
With G26D S31E G103V S107V [GP_HC] the result was nd, nd, nd, nd, nd, nd (controls 0 of 18).
With T28D R100M [GP_Gen] the result was nd, nd, nd, nd, 0.58, nd (controls 0 of 18).
With T28S G61A S63D A101T [GPLM_Gen] the result was 0.48, 0.40, 0.18, 0.28, 1.06, 0.85 (mean 0.54; controls 0 of 18).
With S31E G61C R100P S107L [GP_HC] the result was nd, nd, nd, nd, nd, nd (controls 0 of 18).
With F59M G61E G99N T104L D106K [Ctrl] the result was nd, nd, nd, nd, nd, nd (controls 0 of 18).
With T28D G61D S63K A101T [GP_Gen] the result was nd, 0.18, -0.27, -0.68, -0.33, -0.62 (mean -0.35; controls 0 of 18).

Excerpt, the first 5 entries:

{"changes": "G26H T28N G61A R100Q", "group": "GPLM_Gen", "log10 Kd, replicates": "1.48, 1.24, 1.38, 1.31, 1.37, 1.46", "mean log10 Kd (nM)": "1.37", "empty controls": "0/18"}
{"changes": "S31E D106K S107L", "group": "GP_HC", "log10 Kd, replicates": "nd, nd, nd, nd, nd, nd", "mean log10 Kd (nM)": "nd", "empty controls": "0/18"}
{"changes": "T28S S31T G61I R100T", "group": "GPLM_Gibbs", "log10 Kd, replicates": "0.90, 0.23, 0.17, 0.43, 0.52, 0.86", "mean log10 Kd (nM)": "0.52", "empty controls": "1/18"}
{"changes": "N30L R56L D62H A101T A102H", "group": "Ctrl", "log10 Kd, replicates": "nd, nd, nd, nd, nd, nd", "mean log10 Kd (nM)": "nd", "empty controls": "0/18"}
{"changes": "T28S S31E G61K A101N", "group": "GP_HC", "log10 Kd, replicates": "-0.49, -0.71, -0.39, -0.60, -0.60, -0.06", "mean log10 Kd (nM)": "-0.47", "empty controls": "0/18"}